Drawing on US20060079453A1, “Hla binding peptides and their uses” (priority 2002, published 2006), this text covers IC50 for 19 compounds.

Amino acid sequences for entries named in this document (tags omitted). Residues count along the entry.
UniProt Q30154, 30-266: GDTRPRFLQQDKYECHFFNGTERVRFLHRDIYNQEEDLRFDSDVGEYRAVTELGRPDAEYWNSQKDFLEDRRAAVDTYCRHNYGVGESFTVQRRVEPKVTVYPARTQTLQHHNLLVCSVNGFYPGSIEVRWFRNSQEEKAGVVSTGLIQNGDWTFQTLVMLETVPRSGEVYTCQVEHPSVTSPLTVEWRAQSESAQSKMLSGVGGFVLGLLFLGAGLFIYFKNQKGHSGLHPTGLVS
UniProt P79483, 30-266: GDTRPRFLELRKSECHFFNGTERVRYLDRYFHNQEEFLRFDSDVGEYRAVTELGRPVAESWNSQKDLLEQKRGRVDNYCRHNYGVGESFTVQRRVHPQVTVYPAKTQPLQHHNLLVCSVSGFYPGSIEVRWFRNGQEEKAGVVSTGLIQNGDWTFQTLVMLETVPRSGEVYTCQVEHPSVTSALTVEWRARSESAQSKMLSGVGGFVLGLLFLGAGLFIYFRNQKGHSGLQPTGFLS

Common to all, as to experiment: biochemical
What all share (format): binding

The target of assay [1] is HLA-DR DRB1*0401 (DR4) (Homo sapiens, UniProt P01903+P01911, A100K/A169T/F76Y/I96L/K127E/L162R/M171V/N62H/P40V/Q125Y/R42H/S133A/S149N/S66Y/V115G/V209L/W38E).
In assay [2] the target is HLA-DR DRB5*0101 (DR51) (Homo sapiens, UniProt P01903+Q30154).
In assay [3] the target is HLA-DR DRB1*0802 (DR8) (Homo sapiens, UniProt P01903+P01911, A100R/A103L/A169T/F76Y/H45Y/I96F/K41T/L162R/M171V/P40S/Q125H/Q178H/Q39Y/Q99D/R218S/R42G/S66Y/V115G/W38E).
Assay [4] has as its target HLA-DR DRB3*0101 (DR52) (Homo sapiens, UniProt P01903+P79483).
Assay [5] addresses HLA-DR DRB1*0701 (DR7) (Homo sapiens, UniProt P01903+P01911, A100R/A102G/A103Q/D57E/D86V/E43K/F76Y/K127E/L162R/M171V/P40G/Q125H/Q99D/R33Q/R42Y/R54Q/S133A/S66F/T210M/V115G/Y107V/Y59L/Y89S). The note with it: DRB1 *0701.
Assay [6] has as its target HLA-DR DRB4*0101 (DR53) (Homo sapiens, UniProt P01903+P13762, G164S). The note with it: DRB4 *0101.
The target of assay [7] is HLA-DR DRB1*0901 (DR9) (Homo sapiens, UniProt P01903+P01911, A100R/A103E/D57H/D86V/F55Y/F60I/F76Y/I96F/K127E/L162R/M171V/P40D/Q125H/Q99R/R33Q/R42F/S133A/S66N/T210M/V115G/W38K/Y107V/Y59G/Y89S). The note with it: DRB1 *0901.
Assay [8] deals with HLA-DR DRB1*1101 (DR11) (Homo sapiens, UniProt P01903+P01911, A100R/A169T/A87E/I96F/K41T/L162R/M171V/P40S/Q125H/Q178H/Q39Y/Q99D/R42S/S66Y/T262R/V115G/W38E).
The target of assay [9] is HLA-DR DRB1*0301 (DR3) (Homo sapiens, UniProt P01903+P01911, A100K/A102G/A103R/A169T/F55Y/I96L/K41T/L162R/M171V/P40S/Q125H/Q178H/Q39Y/R42S/S66N/T106N/T262R/W38E/Y61H).

Like-named read-outs stand apart in the source and are kept apart here.

Consider `CC[C@H](C)[C@H](NC(=O)[C@H](CO)NC(=O)[C@H](CC(C)C)NC(=O)[C@H](CCC(N)=O)NC(=O)[C@H](CC(C)C)NC(=O)[C@H](CCC(N)=O)NC(=O)[C@H](CCCNC(=N)N)NC(=O)[C@H](Cc1c[nH]cn1)NC(=O)[C@@H](N)CC(=O)O)C(=O)N[C@@H](CO)C(=O)N[C@@H](CO)C(=O)N[C@@H](CS)C(=O)N[C@@H](CC(C)C)C(=O)N[C@@H](CCC(N)=O)C(=O)N[C@@H](CCC(N)=O)C(=O)N[C@@H](CC(C)C)C(=O)N[C@@H](CO)C(=O)N[C@@H](CC(C)C)C(=O)N[C@@H](CC(C)C)C(=O)N[C@@H](CCSC)C(=O)O`, for which, in [1] (DRB1 *0401), the IC50 is 1320 nM.

Regarding `CC(C)C[C@H](NC(=O)[C@H](CCC(=O)O)NC(=O)[C@H](CCCCN)NC(=O)[C@H](C)NC(=O)[C@H](CC(C)C)NC(=O)[C@@H](NC(=O)[C@H](CO)NC(=O)[C@H](CCCNC(=N)N)NC(=O)[C@@H](N)CC(=O)O)C(C)C)C(=O)N[C@@H](CCCCN)C(=O)N[C@@H](Cc1ccccc1)C(=O)N[C@H](C(=O)N[C@H](C(=O)N[C@@H](CC(C)C)C(=O)N[C@H](C(=O)O)C(C)C)[C@@H](C)O)C(C)C`, the IC50 in [1] (DRB1 *0401) is 569 nM.

Turning to `CC[C@H](C)[C@H](NC(=O)CNC(=O)[C@H](CC(C)C)NC(=O)[C@H](CC(C)C)NC(=O)[C@H](CCCNC(=N)N)NC(=O)[C@H](CO)NC(=O)[C@@H](NC(=O)[C@H](Cc1ccc(O)cc1)NC(=O)[C@@H]1CCCN1C(=O)[C@H](CO)NC(=O)CNC(=O)[C@@H](NC(=O)CN)C(C)C)C(C)C)C(=O)N[C@@H](CS)C(=O)N[C@@H](CC(C)C)C(=O)O`, the IC50 in assay [2] (DRB5 *0101) worked out at 14.2 µM; in assay [3], 1.32 µM.

For the compound `CC[C@H](C)[C@H](N)C(=O)NCC(=O)N[C@@H](Cc1ccc(O)cc1)C(=O)N[C@@H](Cc1ccc(O)cc1)C(=O)N[C@@H](CC(=O)O)C(=O)N[C@@H](C)C(=O)N[C@@H](CCC(N)=O)C(=O)N[C@@H](CCCCN)C(=O)N[C@@H](CC(C)C)C(=O)N[C@@H](CC(C)C)C(=O)N[C@@H](CCC(=O)O)C(=O)N[C@@H](CCCCN)C(=O)N[C@@H](CCSC)C(=O)NCC(=O)NCC(=O)O`, the IC50 in [2] (DRB5 *0101) was determined as 0.506 µM; in assay [4] it was 17.3 µM.

Consider `CC(C)C[C@H](NC(=O)[C@H](CCCCN)NC(=O)[C@H](CC(C)C)NC(=O)[C@@H](N)CCCCN)C(=O)N[C@@H](Cc1ccc(O)cc1)C(=O)N[C@H](C(=O)NCC(=O)N[C@@H](CCC(=O)O)C(=O)N[C@@H](C)C(=O)N[C@H](C(=O)N[C@@H](CCCNC(=N)N)C(=O)N[C@H](C(=O)NCC(=O)N[C@@H](CC(=O)O)C(=O)N[C@@H](CCCNC(=N)N)C(=O)O)[C@@H](C)O)[C@@H](C)O)[C@@H](C)O`, for which the IC50 in assay [2] (DRB5 *0101) is 0.731 µM.

`CC[C@H](C)[C@H](NC(=O)[C@H](Cc1c[nH]cn1)NC(=O)[C@H](CCC(N)=O)NC(=O)[C@H](CC(N)=O)NC(=O)[C@H](Cc1ccccc1)NC(=O)[C@H](CC(C)C)NC(=O)[C@H](Cc1ccc(O)cc1)NC(=O)[C@H](Cc1ccc(O)cc1)NC(=O)[C@@H](N)CC(C)C)C(=O)N[C@@H](CCCCN)C(=O)N[C@@H](CCCCN)C(=O)N[C@@H](CCC(=O)O)C(=O)N[C@@H](CC(C)C)C(=O)N[C@@H](Cc1ccc(O)cc1)C(=O)N[C@@H](Cc1c[nH]cn1)C(=O)O` showed an IC50 in assay [1] (DRB1 *0401) of 1320 nM.

Regarding `CSCC[C@H](N)C(=O)N[C@@H](CO)C(=O)N[C@@H](Cc1ccc(O)cc1)C(=O)N[C@@H](CC(N)=O)C(=O)N[C@@H](CC(C)C)C(=O)N[C@@H](CC(C)C)C(=O)NCC(=O)N[C@@H](Cc1ccccc1)C(=O)N[C@@H](CC(C)C)C(=O)N[C@@H](CCC(N)=O)C(=O)N[C@@H](CCCNC(=N)N)C(=O)N[C@@H](CO)C(=O)N[C@@H](CO)C(=O)N[C@@H](CC(N)=O)C(=O)N[C@H](C(=O)O)[C@@H](C)O`, the IC50 in [1] (DRB1 *0401) was determined as 1150 nM.

For `CC[C@H](C)[C@H](NC(=O)[C@H](C)NC(=O)[C@H](CCC(N)=O)NC(=O)[C@H](CCCNC(=N)N)NC(=O)[C@H](CC(C)C)NC(=O)[C@H](C)NC(=O)[C@@H](NC(=O)[C@H](Cc1c[nH]cn1)NC(=O)[C@H](Cc1c[nH]cn1)NC(=O)[C@@H]1CCCN1)[C@@H](C)O)C(=O)N[C@@H](CC(C)C)C(=O)N[C@@H](CO)C(=O)N[C@@H](Cc1c[nH]c2ccccc12)C(=O)NCC(=O)N[C@@H](CCC(=O)O)C(=O)N[C@@H](CC(C)C)C(=O)N[C@@H](CCSC)C(=O)N[C@H](C(=O)N[C@@H](CC(C)C)C(=O)N[C@@H](C)C(=O)O)[C@@H](C)O`, in assay [1], the IC50 came out at 166 nM.

In [1] (DRB1 *0401), `CC[C@H](C)[C@H](NC(=O)[C@@H]1CCCN1C(=O)[C@H](CC(=O)O)NC(=O)[C@@H](NC(=O)[C@@H]1CCCN1C(=O)[C@H](Cc1ccccc1)NC(=O)[C@@H](NC(=O)[C@H](CC(=O)O)NC(=O)[C@@H](NC(=O)[C@@H]1CCCN1C(=O)[C@H](CO)NC(=O)[C@@H](N)CCCNC(=N)N)[C@@H](C)CC)[C@@H](C)O)[C@@H](C)O)C(=O)N[C@@H](CCCCN)C(=O)N[C@@H](CCC(=O)O)C(=O)N[C@@H](CO)C(=O)O` yielded an IC50 of 13100 nM.

For the compound `CC(C)C[C@H](NC(=O)CNC(=O)[C@H](Cc1ccc(O)cc1)NC(=O)[C@H](CC(N)=O)NC(=O)[C@H](CCCCN)NC(=O)[C@H](CC(C)C)NC(=O)[C@H](CC(C)C)NC(=O)[C@H](C)NC(=O)[C@H](CC(=O)O)NC(=O)[C@H](CC(=O)O)NC(=O)[C@H](CC(N)=O)NC(=O)[C@H](Cc1c[nH]cn1)NC(=O)[C@H](CO)NC(=O)[C@H](CC(N)=O)NC(=O)[C@@H](N)[C@@H](C)O)C(=O)O`, the IC50 in assay [5] was 246 µM; in [2] (DRB5 *0101), > 13 µM; in assay [3] it was > 33.3 µM; in assay [6] it was > 138 µM; in [4], 130 µM; in assay [7], > 59.5 µM. The IC50 in assay [8] (DRB1 *1101) is > 15400 nM.

`CC[C@H](C)[C@H](NC(=O)[C@H](CO)NC(=O)[C@@H](N)[C@@H](C)O)C(=O)N[C@H](C(=O)N[C@@H](CO)C(=O)N[C@@H](CC(C)C)C(=O)N[C@@H](Cc1ccc(O)cc1)C(=O)N[C@@H](CCC(N)=O)C(=O)N[C@@H](CC(C)C)C(=O)N[C@@H](CCC(=O)O)C(=O)N[C@@H](CC(N)=O)C(=O)N[C@@H](Cc1ccc(O)cc1)C(=O)N[C@H](C(=O)N[C@@H](CC(N)=O)C(=O)O)[C@@H](C)O)[C@@H](C)O` gave an IC50 in [1] (DRB1 *0401) of 1470 nM.

For the compound `CC[C@H](C)[C@H](NC(=O)[C@H](CO)NC(=O)[C@H](CCC(=O)O)NC(=O)[C@H](CO)NC(=O)[C@H](Cc1ccccc1)NC(=O)[C@H](CS)NC(=O)[C@H](CC(C)C)NC(=O)[C@H](CO)NC(=O)[C@@H](N)[C@@H](C)O)C(=O)N1CCC[C@H]1C(=O)N[C@H](C(=O)N1CCC[C@H]1C(=O)N[C@@H](CO)C(=O)N[C@@H](CC(N)=O)C(=O)N[C@@H](CCCNC(=N)N)C(=O)O)[C@@H](C)O`, the IC50 in [2] (DRB5 *0101) is > 38.6 µM; in assay [3] it was > 33.3 µM; in assay [4], 3.92 µM; in [9] it was 183 µM; in assay [8] (DRB1 *1101), > 15400 nM.

As to `CSCC[C@H](NC(=O)[C@H](CC(=O)O)NC(=O)[C@H](Cc1ccc(O)cc1)NC(=O)[C@H](CC(C)C)NC(=O)[C@@H]1CCCN1C(=O)[C@H](Cc1c[nH]cn1)NC(=O)[C@@H]1CCCN1C(=O)[C@H](Cc1ccccc1)NC(=O)[C@H](CO)NC(=O)[C@H](Cc1c[nH]cn1)NC(=O)[C@H](CO)NC(=O)[C@@H](NC(=O)[C@H](CCC(N)=O)NC(=O)[C@H](Cc1ccccc1)NC(=O)[C@@H](N)C(C)C)C(C)C)C(=O)O`, the IC50 in [2] (DRB5 *0101) was 0.897 µM; in assay [8] (DRB1 *1101) it was 881 nM.

Turning to `CC[C@H](C)[C@H](NC(=O)[C@H](Cc1ccc(O)cc1)NC(=O)[C@H](CC(C)C)NC(=O)[C@H](CC(C)C)NC(=O)[C@H](Cc1ccccc1)NC(=O)[C@@H](N)CC(C)C)C(=O)N[C@@H](CC(C)C)C(=O)N[C@@H](Cc1ccccc1)C(=O)N[C@@H](CC(C)C)C(=O)N[C@H](C(=O)N[C@@H](CCCCN)C(=O)N[C@@H](CCSC)C(=O)N[C@@H](CC(N)=O)C(=O)N[C@@H](C)C(=O)N[C@@H](CC(C)C)C(=O)O)C(C)C` [LFLLYILFLVKMNAL], the IC50 stood at 4.87 µM in assay [5] and 32.4 µM in assay [2] (DRB5 *0101).

Regarding FAGIRRDGLLLRIVD, the IC50 worked out at 1.35 µM in [2] (read-out: DRB5 *0101) and 804 nM in assay [8] (read-out: DRB1 *1101).

Take FPTIPLSRLFDNAML: the IC50 in [2] (read-out: DRB5 *0101) was determined as 11.5 µM.

For the compound QKQLLTNHLINTPKI, the IC50 in assay [2] (read-out: DRB5 *0101) was found to be 6.59 µM.

Take SVTWIGAAPLILSRI: the IC50 in [2] (read-out: DRB5 *0101) was 0.104 µM; in assay [4] (read-out: DRB3 *0101), 13.7 µM.

As to YDFVFADLRIVYRDG, the IC50 in assay [2] (read-out: DRB5 *0101) is 11.2 µM.
